{"sequences": {"note": "By UniProt entry, the sequences of proteins in these tests, tags left out. Where a name states a change or a piece, a line headed by the entry shows the natural chain unless it says otherwise.", "UniProt Q02127": "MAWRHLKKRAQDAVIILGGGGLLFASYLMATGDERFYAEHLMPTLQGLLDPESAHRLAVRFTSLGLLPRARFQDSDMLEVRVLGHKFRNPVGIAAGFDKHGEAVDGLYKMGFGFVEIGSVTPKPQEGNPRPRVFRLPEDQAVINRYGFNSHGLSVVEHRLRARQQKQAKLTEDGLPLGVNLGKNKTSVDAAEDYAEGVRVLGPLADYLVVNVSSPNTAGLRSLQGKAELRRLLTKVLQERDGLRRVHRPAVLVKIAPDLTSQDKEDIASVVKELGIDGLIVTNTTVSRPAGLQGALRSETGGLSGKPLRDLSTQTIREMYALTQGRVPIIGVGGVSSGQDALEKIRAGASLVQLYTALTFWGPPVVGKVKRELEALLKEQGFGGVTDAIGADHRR"}, "source": "patent US9006454B2", "about": "“Dihydroorotate dehydrogenase inhibitors” (Merck Serono S.A., priority 2009, dated 2015)", "biological_target": "DHODH (Homo sapiens (Human), UniProt Q02127)", "test": "DHODH activity assay (coupled enzyme assay, DCIP reduction, absorbance at 610 nm)", "type": "biochemical", "procedure": "The DHODH activity assay is a coupled enzyme assay in which oxidation of DHO and subsequent reduction of ubiquinone are stoichiometrically equivalent to the reduction of DCIP ([…]). The reduction of DCIP is accompanied by a loss of absorbance at 610 nm.\nBuffer Preparation: 50 mM tris HCl, 150 mM KCl, and pH 8.0, 0.8% triton.\n5 μL of Dimethyl sulfoxide or a compound of formula I in DMSO solution was added to the wells of a 96 well plate. Compounds of formula I were measured at 10 μM.\nProtein along with buffer was added, so that the total volume including the DMSO was 87 μL. Compound and protein were incubated for half an hour at room temperature after mixing. 5 μL of 20 mM solution of L-Dihydroorotic acid, 5 μL of 2 mM solution of Decylubiquinone and 3 μL of 2 mM solution of 2,6-Dichloroindophenol sodium salt hydrate were added to the above solution (total assay volume 100 μL). The mixture was stirred for 2 min and absorbance was recorded at every 10 min at 610 nanometers.\nPercent Inhibition is Calculated as Follows\nReaction containing compound has compound, buffer, enzyme and substrates\nPositive control contains DMSO, buffer, enzyme and substrates\nNo Enzyme reaction contains DMSO, buffer and substrates\nIC50 determination: • A 2 mM DMSO stock of the compound of formula I to be examined was prepared. ⅓rd dilutions were made as follows: […]"}
{"smiles": "Cc1cc(C(=O)O)c2nc(-c3ccc(-c4ccc(NC(=O)[C@@H]5CCCN5)cc4)cc3)[nH]c2c1", "note": "[I89]", "values": [{"measurement": "IC50", "result": 0.692, "unit": "µM"}]}
